Target: T1, HDM2 (Homo sapiens, UniProt Q00987)
T1 construct: Thioredoxin (N); made in house; host or cells: E. coli strain BL21(DE3)Rosetta
Assay: HDM2 FRET assay (inhibition of binding of FITC labeled p53-pocket peptide to HDM2)

By UniProt entry, the sequences of proteins in these tests, tags left out. Residues count along the entry.
UniProt Q00987, 17-125: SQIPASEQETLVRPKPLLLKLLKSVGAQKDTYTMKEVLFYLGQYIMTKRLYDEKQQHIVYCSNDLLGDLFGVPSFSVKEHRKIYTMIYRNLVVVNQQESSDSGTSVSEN

[1] = 0.5 nM HDM2 (residues 17 to 125), 3nM peptide, two hour incubation at room temperature

`C[C@@H](Nc1nc(-c2noc(=O)[nH]2)nc2nc(N3CCOCC3c3ccccc3)n(Cc3ccc(C(F)(F)F)c(F)c3)c12)C1CCC1` (single isomer, unassigned) [Example 9.55] gave an IC50 (Table 9) of 3.05 nM.

In the case of `C[C@@H](Nc1nc(-c2noc(=O)[nH]2)nc2nc(N3CCOCC3c3ccccc3)n(Cc3ccc(C(F)(F)F)c(F)c3)c12)C1CCC1` (single isomer, unassigned) [Example 9.56], the IC50 (Table 9) is reported as 2.25 nM.

Work on `CC(c1ccccn1)N(C)c1nc2nc(-c3noc(=O)[nH]3)nc(N[C@H](C)C3CCC3)c2n1C[C@H]1CC[C@H](C)CC1` (single isomer, unassigned) [Example 11.24] yielded an IC50 (Table 11) of 11.6 nM.

Work on `CC(c1ccccn1)N(C)c1nc2nc(-c3noc(=O)[nH]3)nc(N[C@H](C)C3CCC3)c2n1C[C@H]1CC[C@H](C)CC1` (single isomer, unassigned) [Example 11.25] yielded an IC50 (Table 11) of 10.5 nM.

Work on `CC(Nc1nc2nc(-c3noc(=O)[nH]3)nc(N[C@H](C)C3CCC3)c2n1C[C@H]1CC[C@H](C)CC1)c1cnccn1` (single isomer, unassigned) [Example 11.91] yielded an IC50 (Table 11) of 3.67 nM.

`CC(Nc1nc2nc(-c3noc(=O)[nH]3)nc(N[C@H](C)C3CCC3)c2n1C[C@H]1CC[C@H](C)CC1)c1cnccn1` (single isomer, unassigned) [Example 11.93] gave an IC50 (Table 11) of 11.9 nM.

In the case of `C[C@@H](Nc1nc([S+](C)[O-])nc2nc(N3CCCCC3c3ccccc3)n(C[C@H]3CC[C@H](C)CC3)c12)C1CCC1` (single isomer, unassigned) [Example 14.11], the IC50 [1] is reported as 417 nM.

Compound `C[C@@H](Nc1nc([S+](C)[O-])nc2nc(N3CCCCC3c3ccccc3)n(C[C@H]3CC[C@H](C)CC3)c12)C1CCC1` (single isomer, unassigned) [Example 14.12] has an IC50 [1] of 25.9 nM.

Work on `C[C@@H](Nc1nc([S+](C)[O-])nc2nc(N3CCCCC3c3ccccc3)n(C[C@H]3CC[C@H](C)CC3)c12)C1CCC1` (single isomer, unassigned) [Example 14.13] yielded an IC50 [1] of 646 nM.

`C[C@@H](Nc1nc([S+](C)[O-])nc2nc(N3CCCCC3c3ccccc3)n(C[C@H]3CC[C@H](C)CC3)c12)C1CCC1` (single isomer, unassigned) [Example 14.14] gave an IC50 [1] of 186 nM.

`Cc1cccc(-c2nc3nc(C(=O)O)nc(N[C@H](C)C4CC4)c3n2CC2CCC(C(F)(F)F)CC2)c1` (single isomer, unassigned) [Example 18.27] was tested, and the IC50 (Table 18) was 338 nM.

`Cc1cccc(-c2nc3nc(C(=O)O)nc(N[C@H](C)C4CC4)c3n2CC2CCC(C(F)(F)F)CC2)c1` (single isomer, unassigned) [Example 18.28] showed an IC50 (Table 18) of 386 nM.

Work on `CC([C@H]1CC[C@H](C)CC1)n1c(N2CCOC[C@H]2C)nc2nc(-c3noc(=O)[nH]3)nc(-c3cccc(Cl)c3)c21` (single isomer, unassigned) [Example 18.33] yielded an IC50 (Table 18) of 3.14 nM.

Work on `CC([C@H]1CC[C@H](C)CC1)n1c(N2CCOC[C@H]2C)nc2nc(-c3noc(=O)[nH]3)nc(-c3cccc(Cl)c3)c21` (single isomer, unassigned) [Example 18.34] yielded an IC50 (Table 18) of 5.62 nM.

`CC([C@H]1CC[C@H](C)CC1)n1c(N2CCOC3CCCC32)nc2nc(-c3noc(=O)[nH]3)nc(N[C@H](C)C3CCC3)c21` (single isomer, unassigned) [Example 18.38] was tested, and the IC50 (Table 18) was 16.6 nM.

`CC([C@H]1CC[C@H](C)CC1)n1c(N2CCOC3CCCC32)nc2nc(-c3noc(=O)[nH]3)nc(N[C@H](C)C3CCC3)c21` (single isomer, unassigned) [Example 18.41] gave an IC50 (Table 18) of 2.57 nM.

Work on `CC([C@H]1CC[C@H](C)CC1)n1c(N2CCOC3CCCC32)nc2nc(-c3noc(=O)[nH]3)nc(N[C@H](C)C3CCC3)c21` (single isomer, unassigned) [Example 18.42] yielded an IC50 (Table 18) of 5.77 nM.

`CC(c1nc2nc(-c3noc(=O)[nH]3)nc(N[C@H](C)C3CCC3)c2n1C[C@H]1CC[C@H](C)CC1)C1CCCCC1` (single isomer, unassigned) [Example 21.22] was tested, and the IC50 (Table 21) was 7.81 nM.

`CC(c1nc2nc(-c3noc(=O)[nH]3)nc(N[C@H](C)C3CCC3)c2n1C[C@H]1CC[C@H](C)CC1)C1CCCCC1` (single isomer, unassigned) [Example 21.23] gave an IC50 (Table 21) of 1.82 nM.

`C[C@@H](Nc1nc(-c2noc(=O)[nH]2)nc2nc(C3CCOCC3c3ccccc3)n(C[C@H]3CC[C@H](C)CC3)c12)C1CCC1` (single isomer, unassigned) [Example 21.28] showed an IC50 (Table 21) of 3.35 nM.

Work on `C[C@@H](Nc1nc(-c2noc(=O)[nH]2)nc2nc(C3CCOCC3c3ccccc3)n(C[C@H]3CC[C@H](C)CC3)c12)C1CCC1` (single isomer, unassigned) [Example 21.29] yielded an IC50 (Table 21) of 20.2 nM.

In the case of `C[C@@H](Nc1nc(-c2noc(=O)[nH]2)nc2nc(C(C)(O)c3ccccc3F)n(C[C@H]3CC[C@H](C)CC3)c12)C1CCC1` (single isomer, unassigned) [Example 22.3], the IC50 (Table 22) is reported as 7.21 nM.

Compound `C[C@@H](Nc1nc(-c2noc(=O)[nH]2)nc2nc(C(C)(O)c3ccccc3F)n(C[C@H]3CC[C@H](C)CC3)c12)C1CCC1` (single isomer, unassigned) [Example 22.4] has an IC50 (Table 22) of 41.2 nM.

For `C[C@@H](Nc1nc(-c2noc(=O)[nH]2)nc2nc(C(C)(F)c3ccccn3)n(C[C@H]3CC[C@H](C)CC3)c12)C1CCC1` (single isomer, unassigned) [Example 22.8], the IC50 (Table 22) was 1.3 nM.

`C[C@@H](Nc1nc(-c2noc(=O)[nH]2)nc2nc(C(C)(F)c3ccccn3)n(C[C@H]3CC[C@H](C)CC3)c12)C1CCC1` (single isomer, unassigned) [Example 22.9] gave an IC50 (Table 22) of 2.83 nM.

Compound `C[C@@H](Nc1nc(-c2noc(=O)[nH]2)nc2nc(C(O)CO)n(C[C@H]3CC[C@H](C)CC3)c12)C1CCC1` (single isomer, unassigned) [Example 22.17] has an IC50 (Table 22) of 148 nM.

Work on `C[C@@H](Nc1nc(-c2noc(=O)[nH]2)nc2nc(C(O)CO)n(C[C@H]3CC[C@H](C)CC3)c12)C1CCC1` (single isomer, unassigned) [Example 22.18] yielded an IC50 (Table 22) of 91.8 nM.

`CC(c1cscn1)c1nc2nc(-c3noc(=O)[nH]3)nc(N[C@H](C)C3CCC3)c2n1C[C@H]1CC[C@H](C)CC1` (single isomer, unassigned) [Example 22.26] gave an IC50 (Table 22) of 1.43 nM.

For `CC(c1cscn1)c1nc2nc(-c3noc(=O)[nH]3)nc(N[C@H](C)C3CCC3)c2n1C[C@H]1CC[C@H](C)CC1` (single isomer, unassigned) [Example 22.27], the IC50 (Table 22) was 14.3 nM.

Compound `C[C@@H](Nc1nc(-c2noc(=O)[nH]2)nc2nc(C(C)(O)c3cccc(F)c3)n(C[C@H]3CC[C@H](C)CC3)c12)C1CCC1` (single isomer, unassigned) [Example 22.35] has an IC50 (Table 22) of 47 nM.

`C[C@@H](Nc1nc(-c2noc(=O)[nH]2)nc2nc(C(C)(O)c3cccc(F)c3)n(C[C@H]3CC[C@H](C)CC3)c12)C1CCC1` (single isomer, unassigned) [Example 22.37] gave an IC50 (Table 22) of 277 nM.

`Cc1cccc(-c2nc3nc(C(=O)O)nc(N[C@H](C)C4CC4)c3n2CC2CCC(C(F)(F)F)CC2)c1` (stereo partly drawn) [Example 18.26, 6-{[(1R)-1-cyclopropylethyl]amino} -8-(3-methylphenyl)-7-{[4-(trifluoromethyl)cyclohexyl]methyl}-7H-purine-2-carboxylic acid] was tested, and the IC50 (Table 18) was 297 nM.
